Results reported in publication PMC9785202, “Changes in Disposition of Ezetimibe and Its Active Metabolites Induced by Impaired Hepatic Function: The Influence of Enzyme and Transporter Activities” (Pharmaceutics, 2022).

Chains of the proteins cited; added tags and fusions are not shown. Lines headed by an entry give the natural chain unless they say otherwise; changes in a name come on top.
UniProt Q9NPD5: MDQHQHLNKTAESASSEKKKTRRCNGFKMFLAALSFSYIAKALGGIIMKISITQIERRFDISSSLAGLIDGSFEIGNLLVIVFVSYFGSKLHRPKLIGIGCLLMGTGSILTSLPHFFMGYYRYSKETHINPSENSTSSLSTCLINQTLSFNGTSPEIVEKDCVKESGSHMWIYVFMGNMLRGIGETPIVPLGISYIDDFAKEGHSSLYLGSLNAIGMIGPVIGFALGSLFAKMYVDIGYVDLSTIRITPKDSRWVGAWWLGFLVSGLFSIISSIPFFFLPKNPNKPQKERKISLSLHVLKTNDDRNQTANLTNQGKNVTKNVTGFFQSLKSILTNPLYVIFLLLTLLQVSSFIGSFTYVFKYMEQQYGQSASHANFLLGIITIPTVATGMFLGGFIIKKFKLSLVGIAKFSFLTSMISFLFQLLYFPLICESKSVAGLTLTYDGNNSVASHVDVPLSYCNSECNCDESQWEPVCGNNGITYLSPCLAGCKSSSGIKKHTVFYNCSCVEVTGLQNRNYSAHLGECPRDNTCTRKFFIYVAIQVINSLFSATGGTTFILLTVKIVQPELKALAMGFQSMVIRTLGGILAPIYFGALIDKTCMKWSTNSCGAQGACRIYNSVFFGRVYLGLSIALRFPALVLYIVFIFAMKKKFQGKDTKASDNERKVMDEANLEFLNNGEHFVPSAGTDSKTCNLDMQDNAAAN

Target: OATP1B3 (Homo sapiens, UniProt Q9NPD5)
Test: Inhibition of OATP1B3-mediated uptake in OATP1B3-transfected HEK293 cells by bile acids and rifampicin
Conditions: inhibitor 200 μM, substrate EZE-Ph

CO[C@H]1/C=C/O[C@@]2(C)Oc3c(C)c(O)c4c(O)c(c(/C=N/N5CCN(C)CC5)c(O)c4c3C2=O)NC(=O)/C(C)=C\C=C\[C@H](C)[C@H](O)[C@@H](C)[C@@H](O)[C@@H](C)[C@H](OC(C)=O)[C@@H]1C [rifampicin, reference compound]
uptake of EZE-Ph in OATP1B3-expressing HEK293 cells in the presence of inhibitor: 7.94%
